The target in the assay is Amine oxidase [flavin-containing] B (Rattus norvegicus, UniProt P19643). Description: Inhibitory concentration for rat liver Monoamine oxidase B using beta-phenylethylamine.

By UniProt entry, the sequences of proteins in these tests, tags left out.
UniProt P19643, whole entry: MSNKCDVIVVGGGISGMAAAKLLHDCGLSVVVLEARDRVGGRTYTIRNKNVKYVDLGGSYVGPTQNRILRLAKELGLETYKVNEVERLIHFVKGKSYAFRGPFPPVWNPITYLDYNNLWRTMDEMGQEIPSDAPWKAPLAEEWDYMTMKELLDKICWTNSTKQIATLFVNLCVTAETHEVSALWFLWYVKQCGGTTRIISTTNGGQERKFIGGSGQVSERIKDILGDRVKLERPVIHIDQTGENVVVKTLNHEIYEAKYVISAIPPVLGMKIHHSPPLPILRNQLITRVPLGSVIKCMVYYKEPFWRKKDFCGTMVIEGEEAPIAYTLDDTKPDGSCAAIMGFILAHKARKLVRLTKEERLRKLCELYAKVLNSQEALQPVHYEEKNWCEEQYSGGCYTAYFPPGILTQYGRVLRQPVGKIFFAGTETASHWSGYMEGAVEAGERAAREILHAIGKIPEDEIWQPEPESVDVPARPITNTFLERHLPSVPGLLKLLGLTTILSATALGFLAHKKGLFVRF

Usually IC50 stands for the concentration that inhibits the measured activity by half. Read a low IC50 as higher potency. For the compound `Cl.Cl.NCc1c(OCCCCO)cncc1OCCCCO`, the half-inhibitory concentration (IC50) is > 1 mM.

The values above are taken from ChEMBL document CHEMBL1141879, “Alkylamino derivatives of 4-aminomethylpyridine as inhibitors of copper-containing amine oxidases” (J Med Chem, 2005).
